{
  "source": "patent US9364443B2",
  "about": "“Compositions and methods for drug delivery” (BAXTER INTERNATIONAL, INC., priority 2008, dated 2016)",
  "key": {"[1]": {"assay": "Zeta potential and size of SPIO nanoparticles", "assay_type": "physicochemical", "details": "HEPES buffer pH 7.4", "experimental": "To test the effect of size and dextran coating on cellular uptake, SPIO coated with 100 kDa dextran with sizes ranging from 62 to 394 nm were incubated with human monocytes for 1 hour at 37° C. (FIG. 5A). […] After 1 hour-oxidation, SPIO was conjugated with different concentrations of IgG (0.5, 1, 2 and 4 mg/ml) and each conjugate IgG-SPIO complex was incubated with human monocytes for 0.5 and 1 hr at 37° C. […] Nonetheless, the steric barrier generated by the dextran surrounding the iron core of NP could have prevented adsorption of IgG. […] (FIG. 5D). […] The results support the idea that similar mechanisms for iron uptake were operative amongst both cell types. In order to study the mechanism of internalization, IgG-SPIO and free IgG, at a concentration of 1 mg/ml, were co-incubated with human monocytes (FIG. 5F). […] To test that possibility, human serum albumin (HSA) was covalently attached to SPIO using the identical oxidation/reduction procedure as IgG conjugation. […] In order to confirm the notion that particle uptake was independent of the Fc receptor we performed blocking studies. […] This could be due to the fact that HSA modified the conjugated SPIO itself. To test the latter possibility, physical-chemical properties of SPIO including zeta potential and size measurements of the nanoparticles were performed in HEPES buffer at pH 7.4."}, "human monocytes": {"system": "human monocytes", "assay": "Iron uptake by human monocytes, colorimetric ferrozine assay", "assay_type": "cell-based", "details": "covalent HSA conjugate"}},
  "data": [
    {"substance": "HSA-SPIO: human serum albumin covalently attached to SPIO by the same oxidation/reduction procedure", "values": [
      {"measurement": "effect of modification on particle size", "setting": "[1]", "value": "did not affect its size"},
      {"measurement": "uptake versus SPIO", "setting": "human monocytes", "value": "significantly enhanced the uptake of SPIO"}
    ]}
  ]
}
